PMC9201511 (RSC Advances, 2022)

System: pEGFR
Assay: Western blot, EGF-induced phosphorylation of EGFR
Type: cell-based, human
Settings: A431, various concentrations, 24 h, then EGF 50 ng mL^−1 15 min

COc1cc2ncnc(Nc3ccc(F)c(Cl)c3)c2cc1OCCCN1CCOCC1 [Gefitinib, gefitinib]
level of phosphorylated EGFR (pEGFR): reduced the level of phosphorylated EGFR
